What all share (assay type): cell-based
For assay [1], the target named is T1, Signal transducer and activator of transcription 6 (Homo sapiens) (UniProt P42226).
T1 sequence (whole entry): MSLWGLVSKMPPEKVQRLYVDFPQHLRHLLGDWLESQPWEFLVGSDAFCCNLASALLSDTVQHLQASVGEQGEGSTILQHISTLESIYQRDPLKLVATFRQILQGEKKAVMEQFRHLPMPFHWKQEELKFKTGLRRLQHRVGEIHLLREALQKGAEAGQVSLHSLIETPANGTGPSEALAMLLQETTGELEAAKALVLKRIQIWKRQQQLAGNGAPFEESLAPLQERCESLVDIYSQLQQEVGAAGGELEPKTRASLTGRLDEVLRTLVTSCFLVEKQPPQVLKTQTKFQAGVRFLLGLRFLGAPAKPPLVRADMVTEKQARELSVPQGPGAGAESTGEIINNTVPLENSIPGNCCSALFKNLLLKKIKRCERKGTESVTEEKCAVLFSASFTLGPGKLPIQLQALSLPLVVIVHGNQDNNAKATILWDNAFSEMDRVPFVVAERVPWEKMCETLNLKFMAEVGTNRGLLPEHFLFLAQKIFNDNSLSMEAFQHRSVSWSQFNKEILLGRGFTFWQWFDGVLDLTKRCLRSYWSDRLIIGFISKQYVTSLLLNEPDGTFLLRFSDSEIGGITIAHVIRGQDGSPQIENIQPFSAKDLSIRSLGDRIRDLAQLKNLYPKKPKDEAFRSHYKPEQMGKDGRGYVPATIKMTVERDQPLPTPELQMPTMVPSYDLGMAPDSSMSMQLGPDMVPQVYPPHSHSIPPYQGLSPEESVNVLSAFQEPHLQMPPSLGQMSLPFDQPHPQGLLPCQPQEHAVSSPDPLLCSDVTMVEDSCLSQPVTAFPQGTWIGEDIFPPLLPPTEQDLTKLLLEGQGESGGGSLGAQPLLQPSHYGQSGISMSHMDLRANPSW
The assay can be described thus: Effect on STAT6 at Y641 phosphorylation level in human NCI-H1975 incubated for 12 hrs by human phosphokinase proteome profiler array relative to beta-catenin.

Protein sequences, listed by entry. Tags and fused reporters are not part of them. Lines headed by an entry give the natural chain unless they say otherwise; changes in a name come on top.
UniProt Q14289, whole entry, looked up: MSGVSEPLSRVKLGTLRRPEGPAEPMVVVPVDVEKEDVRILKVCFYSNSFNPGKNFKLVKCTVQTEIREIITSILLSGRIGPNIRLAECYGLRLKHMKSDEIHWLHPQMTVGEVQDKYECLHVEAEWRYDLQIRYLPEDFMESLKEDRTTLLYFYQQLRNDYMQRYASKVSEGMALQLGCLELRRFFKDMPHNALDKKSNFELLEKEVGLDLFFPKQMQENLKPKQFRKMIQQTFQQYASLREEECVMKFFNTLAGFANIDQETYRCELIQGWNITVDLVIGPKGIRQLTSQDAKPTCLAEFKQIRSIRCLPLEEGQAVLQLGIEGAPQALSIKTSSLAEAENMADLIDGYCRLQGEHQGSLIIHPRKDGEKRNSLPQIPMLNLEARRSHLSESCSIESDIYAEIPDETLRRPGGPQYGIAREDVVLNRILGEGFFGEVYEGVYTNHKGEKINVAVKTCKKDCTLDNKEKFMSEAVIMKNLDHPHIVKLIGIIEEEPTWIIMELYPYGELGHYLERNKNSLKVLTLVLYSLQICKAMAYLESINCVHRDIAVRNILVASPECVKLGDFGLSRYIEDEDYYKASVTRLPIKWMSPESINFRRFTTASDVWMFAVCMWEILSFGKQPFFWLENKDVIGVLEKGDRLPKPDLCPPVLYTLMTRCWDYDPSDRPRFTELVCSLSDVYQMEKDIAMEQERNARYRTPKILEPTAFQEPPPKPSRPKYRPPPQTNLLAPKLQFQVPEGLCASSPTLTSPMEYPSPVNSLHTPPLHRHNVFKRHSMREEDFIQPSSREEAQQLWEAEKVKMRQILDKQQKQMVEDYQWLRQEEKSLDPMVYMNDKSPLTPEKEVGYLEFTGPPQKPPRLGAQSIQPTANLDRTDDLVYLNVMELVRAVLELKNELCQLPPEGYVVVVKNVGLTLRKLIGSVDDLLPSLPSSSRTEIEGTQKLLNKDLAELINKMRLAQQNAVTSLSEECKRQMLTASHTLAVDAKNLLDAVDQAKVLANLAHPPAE
UniProt P08631: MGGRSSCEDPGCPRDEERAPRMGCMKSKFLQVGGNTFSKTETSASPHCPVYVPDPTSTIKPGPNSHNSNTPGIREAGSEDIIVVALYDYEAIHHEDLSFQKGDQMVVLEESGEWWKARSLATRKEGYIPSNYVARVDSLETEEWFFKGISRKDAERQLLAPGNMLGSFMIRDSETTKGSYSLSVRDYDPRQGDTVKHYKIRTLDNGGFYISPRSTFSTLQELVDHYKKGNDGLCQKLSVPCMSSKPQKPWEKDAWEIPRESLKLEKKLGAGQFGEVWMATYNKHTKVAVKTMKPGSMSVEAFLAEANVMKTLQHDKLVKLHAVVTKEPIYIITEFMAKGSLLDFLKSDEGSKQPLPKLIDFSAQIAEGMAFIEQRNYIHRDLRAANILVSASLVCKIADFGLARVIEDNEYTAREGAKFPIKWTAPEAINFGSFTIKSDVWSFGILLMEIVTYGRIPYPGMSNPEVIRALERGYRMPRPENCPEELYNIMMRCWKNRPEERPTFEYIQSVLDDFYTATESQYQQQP
UniProt P04637, whole entry, looked up: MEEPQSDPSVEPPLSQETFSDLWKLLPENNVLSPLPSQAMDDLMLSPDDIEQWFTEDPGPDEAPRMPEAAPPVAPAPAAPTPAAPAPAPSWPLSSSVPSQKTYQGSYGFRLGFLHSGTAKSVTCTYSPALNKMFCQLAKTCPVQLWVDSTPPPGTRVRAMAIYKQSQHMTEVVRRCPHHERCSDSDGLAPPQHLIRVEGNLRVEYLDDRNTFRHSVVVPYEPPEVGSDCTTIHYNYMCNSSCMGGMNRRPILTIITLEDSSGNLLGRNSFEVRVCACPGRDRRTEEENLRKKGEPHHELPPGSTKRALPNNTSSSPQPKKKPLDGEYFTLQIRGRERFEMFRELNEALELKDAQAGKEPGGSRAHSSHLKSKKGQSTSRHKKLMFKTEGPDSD
UniProt O96017, whole entry: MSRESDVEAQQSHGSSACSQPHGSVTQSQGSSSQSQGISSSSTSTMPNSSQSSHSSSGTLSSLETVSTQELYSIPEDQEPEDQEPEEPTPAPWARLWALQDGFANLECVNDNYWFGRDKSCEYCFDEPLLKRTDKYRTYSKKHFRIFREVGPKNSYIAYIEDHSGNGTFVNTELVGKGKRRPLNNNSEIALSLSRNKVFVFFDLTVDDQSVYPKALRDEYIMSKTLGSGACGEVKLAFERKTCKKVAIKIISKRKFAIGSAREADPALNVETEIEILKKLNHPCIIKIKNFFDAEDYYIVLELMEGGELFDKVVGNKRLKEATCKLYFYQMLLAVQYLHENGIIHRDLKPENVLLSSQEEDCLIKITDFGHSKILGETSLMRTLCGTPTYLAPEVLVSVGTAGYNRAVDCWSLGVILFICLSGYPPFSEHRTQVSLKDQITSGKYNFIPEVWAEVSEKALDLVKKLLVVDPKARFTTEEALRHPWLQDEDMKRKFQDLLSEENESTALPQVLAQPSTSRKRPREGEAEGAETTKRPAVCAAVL
UniProt P40763, whole entry: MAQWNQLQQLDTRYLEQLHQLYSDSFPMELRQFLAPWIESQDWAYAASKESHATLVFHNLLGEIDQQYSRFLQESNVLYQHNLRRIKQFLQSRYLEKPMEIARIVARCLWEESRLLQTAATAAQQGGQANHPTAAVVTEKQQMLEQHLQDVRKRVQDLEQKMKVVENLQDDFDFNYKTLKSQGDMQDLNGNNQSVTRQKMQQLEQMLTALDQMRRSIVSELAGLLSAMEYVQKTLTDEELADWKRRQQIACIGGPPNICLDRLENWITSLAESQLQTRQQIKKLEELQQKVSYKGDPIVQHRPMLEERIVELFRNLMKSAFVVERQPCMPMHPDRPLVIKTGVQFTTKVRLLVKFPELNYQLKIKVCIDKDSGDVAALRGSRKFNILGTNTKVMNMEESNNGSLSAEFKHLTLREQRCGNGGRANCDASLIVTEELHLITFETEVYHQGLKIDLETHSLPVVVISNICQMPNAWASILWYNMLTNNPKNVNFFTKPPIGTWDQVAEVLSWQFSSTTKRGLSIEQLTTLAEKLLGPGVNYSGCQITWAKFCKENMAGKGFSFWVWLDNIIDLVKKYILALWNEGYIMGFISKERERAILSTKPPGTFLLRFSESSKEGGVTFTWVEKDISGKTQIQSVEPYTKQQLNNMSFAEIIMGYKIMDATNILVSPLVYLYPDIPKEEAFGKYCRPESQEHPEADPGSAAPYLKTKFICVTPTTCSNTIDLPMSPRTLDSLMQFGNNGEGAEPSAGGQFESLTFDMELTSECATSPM
UniProt P23443: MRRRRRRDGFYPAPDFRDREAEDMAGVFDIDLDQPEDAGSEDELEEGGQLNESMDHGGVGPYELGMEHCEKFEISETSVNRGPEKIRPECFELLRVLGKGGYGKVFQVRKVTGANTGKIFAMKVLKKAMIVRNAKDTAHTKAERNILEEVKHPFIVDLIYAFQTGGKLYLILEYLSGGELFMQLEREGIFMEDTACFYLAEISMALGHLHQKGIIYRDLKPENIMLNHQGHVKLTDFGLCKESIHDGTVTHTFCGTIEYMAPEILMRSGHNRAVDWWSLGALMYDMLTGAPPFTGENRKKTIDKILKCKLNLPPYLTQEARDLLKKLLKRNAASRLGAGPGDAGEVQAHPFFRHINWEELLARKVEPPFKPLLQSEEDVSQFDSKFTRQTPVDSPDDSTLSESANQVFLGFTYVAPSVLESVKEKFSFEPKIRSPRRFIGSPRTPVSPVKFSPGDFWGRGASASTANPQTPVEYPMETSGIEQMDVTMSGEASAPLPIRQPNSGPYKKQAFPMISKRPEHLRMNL
UniProt P27361, whole entry, looked up: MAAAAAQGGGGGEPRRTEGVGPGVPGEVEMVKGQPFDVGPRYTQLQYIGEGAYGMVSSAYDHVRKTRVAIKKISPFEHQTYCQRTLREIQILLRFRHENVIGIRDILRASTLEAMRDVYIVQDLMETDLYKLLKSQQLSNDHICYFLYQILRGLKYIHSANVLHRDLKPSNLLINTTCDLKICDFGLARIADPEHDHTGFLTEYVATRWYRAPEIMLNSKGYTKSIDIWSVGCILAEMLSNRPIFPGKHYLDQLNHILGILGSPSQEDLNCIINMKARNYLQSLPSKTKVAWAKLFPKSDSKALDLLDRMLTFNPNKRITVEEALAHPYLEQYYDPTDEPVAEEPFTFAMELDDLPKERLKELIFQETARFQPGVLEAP
UniProt P28482, whole entry, looked up: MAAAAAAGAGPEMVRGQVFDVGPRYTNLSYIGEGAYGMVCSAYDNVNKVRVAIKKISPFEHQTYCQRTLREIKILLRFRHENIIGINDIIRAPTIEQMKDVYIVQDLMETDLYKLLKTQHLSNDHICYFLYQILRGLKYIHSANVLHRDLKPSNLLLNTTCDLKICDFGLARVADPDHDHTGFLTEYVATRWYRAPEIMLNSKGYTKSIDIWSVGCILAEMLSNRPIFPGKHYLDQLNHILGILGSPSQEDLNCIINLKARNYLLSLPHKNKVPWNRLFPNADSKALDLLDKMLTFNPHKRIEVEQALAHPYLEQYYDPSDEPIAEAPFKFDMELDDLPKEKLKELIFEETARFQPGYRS
UniProt Q05397, whole entry, looked up: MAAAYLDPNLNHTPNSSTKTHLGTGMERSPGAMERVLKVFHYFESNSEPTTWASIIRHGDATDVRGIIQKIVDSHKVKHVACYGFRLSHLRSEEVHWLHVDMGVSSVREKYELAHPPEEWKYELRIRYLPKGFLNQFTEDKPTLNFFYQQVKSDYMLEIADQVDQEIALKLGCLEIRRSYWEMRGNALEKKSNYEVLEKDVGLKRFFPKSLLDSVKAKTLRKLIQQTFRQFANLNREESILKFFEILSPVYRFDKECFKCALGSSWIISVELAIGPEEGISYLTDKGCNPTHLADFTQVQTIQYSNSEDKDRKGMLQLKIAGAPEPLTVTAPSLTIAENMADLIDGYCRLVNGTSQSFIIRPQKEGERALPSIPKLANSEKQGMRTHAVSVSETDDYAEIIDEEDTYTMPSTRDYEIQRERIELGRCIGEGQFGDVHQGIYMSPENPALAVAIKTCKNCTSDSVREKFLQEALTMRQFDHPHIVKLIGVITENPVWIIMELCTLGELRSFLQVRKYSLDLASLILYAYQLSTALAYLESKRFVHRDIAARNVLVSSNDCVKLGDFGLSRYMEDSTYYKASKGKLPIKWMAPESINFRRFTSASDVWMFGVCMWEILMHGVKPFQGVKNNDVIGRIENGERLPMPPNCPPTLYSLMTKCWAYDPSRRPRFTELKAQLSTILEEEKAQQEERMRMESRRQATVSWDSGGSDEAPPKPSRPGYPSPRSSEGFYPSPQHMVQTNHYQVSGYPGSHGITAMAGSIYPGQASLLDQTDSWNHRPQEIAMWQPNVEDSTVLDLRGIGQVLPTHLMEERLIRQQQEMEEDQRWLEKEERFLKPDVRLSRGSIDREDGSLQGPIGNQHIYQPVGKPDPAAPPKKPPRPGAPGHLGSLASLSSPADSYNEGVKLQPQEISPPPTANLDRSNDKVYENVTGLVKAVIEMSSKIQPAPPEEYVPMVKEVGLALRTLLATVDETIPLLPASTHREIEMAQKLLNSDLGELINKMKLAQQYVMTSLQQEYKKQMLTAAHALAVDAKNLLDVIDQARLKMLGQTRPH
UniProt P04792, whole entry: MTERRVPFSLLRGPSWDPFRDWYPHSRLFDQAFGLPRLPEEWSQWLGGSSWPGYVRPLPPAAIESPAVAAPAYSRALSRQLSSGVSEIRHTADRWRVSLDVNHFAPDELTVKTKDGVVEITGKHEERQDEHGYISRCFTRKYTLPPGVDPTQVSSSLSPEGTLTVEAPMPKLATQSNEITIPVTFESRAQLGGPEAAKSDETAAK
UniProt P07947, whole entry, looked up: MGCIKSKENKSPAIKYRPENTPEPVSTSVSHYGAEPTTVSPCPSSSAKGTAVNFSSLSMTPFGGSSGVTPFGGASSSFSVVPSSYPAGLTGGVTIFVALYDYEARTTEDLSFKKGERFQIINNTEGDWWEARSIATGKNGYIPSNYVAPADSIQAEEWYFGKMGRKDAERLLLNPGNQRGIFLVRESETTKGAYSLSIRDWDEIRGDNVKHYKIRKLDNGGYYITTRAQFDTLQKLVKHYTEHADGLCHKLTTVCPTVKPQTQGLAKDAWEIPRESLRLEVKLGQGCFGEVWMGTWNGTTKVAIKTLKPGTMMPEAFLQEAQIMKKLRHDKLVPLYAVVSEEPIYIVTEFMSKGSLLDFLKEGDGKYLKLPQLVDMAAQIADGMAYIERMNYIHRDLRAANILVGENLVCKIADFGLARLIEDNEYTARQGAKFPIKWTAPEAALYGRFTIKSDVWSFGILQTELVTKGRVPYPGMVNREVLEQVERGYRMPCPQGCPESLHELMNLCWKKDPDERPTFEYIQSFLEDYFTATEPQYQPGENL

Assay [2] concerns the target Protein-tyrosine kinase 2-beta (Homo sapiens) (UniProt Q14289). Briefly: Effect on PYK2 at Y402 phosphorylation level in human NCI-H1975 incubated for 12 hrs by human phosphokinase proteome profiler array relative to beta-catenin.
The target in assay [3] is Tyrosine-protein kinase HCK (Homo sapiens) (UniProt P08631). The assay can be described thus: Effect on Hck at Y411 phosphorylation level in human NCI-H1975 incubated for 12 hrs by human phosphokinase proteome profiler array relative to control.
Assay [4] concerns the target Cellular tumor antigen p53 (Homo sapiens) (UniProt P04637). The assay can be described thus: Effect on p53 at S392 phosphorylation level in human NCI-H1975 incubated for 12 hrs by human phosphokinase proteome profiler array relative to beta-catenin.
The target in assay [5] is Serine/threonine-protein kinase Chk2 (Homo sapiens) (UniProt O96017). Briefly: Effect on CHK2 at T68 phosphorylation level in human NCI-H1975 incubated for 12 hrs by human phosphokinase proteome profiler array relative to beta-catenin.
The target of assay [6] is Cellular tumor antigen p53 (Homo sapiens) (UniProt P04637). Briefly: Effect on p53 at S15 phosphorylation level in human NCI-H1975 incubated for 12 hrs by human phosphokinase proteome profiler array relative to control.
The target of assay [7] is Signal transducer and activator of transcription 3 (Homo sapiens) (UniProt P40763). The assay can be described thus: Effect on STAT3 at Y705 phosphorylation level in human NCI-H1975 incubated for 12 hrs by human phosphokinase proteome profiler array relative to control.
Assay [8] concerns the target Ribosomal protein S6 kinase beta-1 (Homo sapiens) (UniProt P23443). Briefly: Effect on p70S6 Kinase at T421/S424 phosphorylation level in human NCI-H1975 incubated for 12 hrs by human phosphokinase proteome profiler array relative to beta-catenin.
Assay [9] addresses Signal transducer and activator of transcription 3 (Homo sapiens) (UniProt P40763). The assay can be described thus: Effect on STAT3 at Y705 phosphorylation level in human NCI-H1975 incubated for 12 hrs by human phosphokinase proteome profiler array relative to beta-catenin.
Assay [10] addresses T2, Signal transducer and activator of transcription 5B (Homo sapiens) (UniProt P51692).
T2 sequence (whole entry): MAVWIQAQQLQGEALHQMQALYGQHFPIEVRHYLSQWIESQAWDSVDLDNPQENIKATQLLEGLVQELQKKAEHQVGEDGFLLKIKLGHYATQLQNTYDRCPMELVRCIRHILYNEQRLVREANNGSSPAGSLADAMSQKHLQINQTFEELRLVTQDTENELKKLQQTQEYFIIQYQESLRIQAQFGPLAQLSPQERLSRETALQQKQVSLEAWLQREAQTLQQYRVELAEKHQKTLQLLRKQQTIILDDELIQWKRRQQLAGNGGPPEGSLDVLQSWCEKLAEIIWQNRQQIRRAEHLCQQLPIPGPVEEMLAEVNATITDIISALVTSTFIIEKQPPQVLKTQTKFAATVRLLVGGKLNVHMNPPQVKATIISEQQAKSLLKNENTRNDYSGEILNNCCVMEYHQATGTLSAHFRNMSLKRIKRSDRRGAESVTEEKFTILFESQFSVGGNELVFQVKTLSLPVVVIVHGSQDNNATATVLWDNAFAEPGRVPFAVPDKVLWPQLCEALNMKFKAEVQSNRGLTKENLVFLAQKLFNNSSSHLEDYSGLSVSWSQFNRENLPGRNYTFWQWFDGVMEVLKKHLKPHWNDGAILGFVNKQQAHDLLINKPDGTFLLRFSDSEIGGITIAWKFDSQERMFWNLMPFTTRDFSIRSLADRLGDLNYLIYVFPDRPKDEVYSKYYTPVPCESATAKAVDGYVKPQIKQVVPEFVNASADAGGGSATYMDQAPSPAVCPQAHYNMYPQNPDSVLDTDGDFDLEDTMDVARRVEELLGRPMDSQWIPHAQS
Briefly: Effect on STAT5b at Y699 phosphorylation level in human NCI-H1975 incubated for 12 hrs by human phosphokinase proteome profiler array relative to beta-catenin.

Assay [11] addresses Mitogen-activated protein kinase; ERK1/ERK2 (Homo sapiens) (UniProt P27361+P28482). The assay can be described thus: Effect on ERK1/2 at T202/Y204,T185/Y187 phosphorylation level in human NCI-H1975 incubated for 12 hrs by human phosphokinase proteome profiler array relative to beta-catenin.
Assay [12] addresses Focal adhesion kinase 1 (Homo sapiens) (UniProt Q05397). Briefly: Effect on FAK at Y397 phosphorylation level in human NCI-H1975 incubated for 12 hrs by human phosphokinase proteome profiler array relative to beta-catenin.
The target in assay [13] is Heat shock protein beta-1 (Homo sapiens) (UniProt P04792). The assay can be described thus: Effect on HSP27 at S78/S82 phosphorylation level in human NCI-H1975 incubated for 12 hrs by human phosphokinase proteome profiler array relative to control.
Assay [14] concerns the target Ribosomal protein S6 kinase beta-1 (Homo sapiens) (UniProt P23443). Briefly: Effect on p70S6 Kinase at T389 phosphorylation level in human NCI-H1975 incubated for 12 hrs by human phosphokinase proteome profiler array relative to control.
Assay [15] deals with Tyrosine-protein kinase Yes (Homo sapiens) (UniProt P07947). Briefly: Effect on YES at Y426 phosphorylation level in human NCI-H1975 incubated for 12 hrs by human phosphokinase proteome profiler array relative to beta-catenin.

SMILES strings stand for the structures.

On to `CCOc1ccc(-c2nc(/C(N)=N/O)c3[nH]c(=O)n(-c4ccccc4OC)c3n2)cc1`, for which the fold change (FC) in assay [1] worked out at 0.99; in [2], 1.67; in assay [3], 0.66; in assay [4] it was 1.36; in assay [5], 0.86; in assay [6], 1.36. The fold change (FC) in assay [7] was 1.47; in assay [8], 1.57; in assay [9], 1.73; in assay [10], 1.02; in assay [11], 1.65; in assay [12] it was 1.04. For the same compound, the fold change (FC) in assay [13] amounted to 0.77; in [14] it was 1.34; in assay [15] it was 0.83.

Turning to `CCOc1ccc(-c2nc(C(=O)NO)c3[nH]c(=O)n(-c4ccccc4OC)c3n2)cc1`, the fold change (FC) came out at 1.35 in assay [1]; 1.27 in assay [2]; 0.75 in [3]; 1.16 in assay [4]; 0.97 in assay [5]; 0.83 in assay [6]. The fold change (FC) in [7] turned out to be 1.14; in [8], 1; in [9] it was 1.28; in assay [10] it was 0.88; in [11], 1.48; in assay [12] it was 1.01. The values for the fold change (FC) in [13], in [14] and in assay [15] were 0.75, 0.89 and 0.84, respectively.

The values are drawn from ChEMBL document CHEMBL4359863, “Structure-guided development of purine amide, hydroxamate, and amidoxime for the inhibition of non-small cell lung cancer” (Eur J Med Chem, 2019).
